From patent publication US20110306762A1, “ACID ADDITION SALT OF UDENAFIL, PREPARATION METHOD THEREOF AND PHARMACEUTICAL COMPOSITION COMPRISING THE SAME” (priority 2009, published 2011)
Like-named read-outs stand apart in the source and are kept apart here.

Legend:
Assay type in all cases: physicochemical
[1] = Hygroscopicity test of acid addition salts of Udenafil; conditions: exposed for 2 hours, room temperature, relative humidity 43%
[2] = Solubility test in distilled water by HPLC
Excerpt: To test the solubility of the acid addition salts of Udenafil in distilled water, the following experiments were preformed.
The analysis conditions for HPLC were as follows:
Detector: ultraviolet ray absorbance measured at wavelength 292 nm
Column: octadecyl silica gel C18 (4.6×150 mm, 5 μm)
Mobile phase: an aqueous solution of potassium dihydrogenphosphate (0.02M):acetonitrile=70:30

[3] = Crystallinity test of acid addition salts of Udenafil; set-up: key: ◯: Formation of crystal; X: No formation of crystal
Experimental: The acid addition salts of Udenafil obtained in Examples 1 to 6 and Comparative Examples were tested for crystallinity and hygroscopicity as follows.
1) detecting whether the crystal is formed in the reaction solution, and
2) crystallization: detecting whether crystallization occurs after dissolving acid addition salt of Udenafil in a suitable solvent.

## Adipic Acid Addition Salt of Udenafil [Example 5]
[1]
  Hygroscopicity (weight change ratio, %): 0.9%
[2]; listed as Udenafil adipiate
  solubility in the distilled water: most excellent solubility
[2]; listed as Udenafil salt of adipic acid
  solubility in the distilled water: remarkably excellent solubility

## Oxalic Acid Addition Salt of Udenafil [Example 1]
[2]
  solubility in the distilled water: remarkably excellent solubility

## Cyclamic Acid Addition Salt of Udenafil [Example 6]
[3]; crystallization: whether crystallization occurs after dissolving the salt in a suitable solvent
  Crystallinity test 1-2: ◯
[3]; detecting whether the crystal is formed in the reaction solution
  Crystallinity test 1-1: ◯
[1]
  Hygroscopicity (weight change ratio, %): 0.8%

## Benzenesulfonic Acid Addition Salt of Udenafil [Example 2]
[1]
  Hygroscopicity (weight change ratio, %): 1.4%
[2]; HPLC, UV 292 nm
  Average of measured peak area: 59,654
  First measured peak area: 59,985
  second measured peak area: 59,985
  third measured peak area: 58,993
